Screens from PubChem.
This is one part of a sample in which hits are shown more often than they occur.
GIV Gai3 FP: blocks GIV peptide binding to rat Galpha-i3. P08753. Galpha-i3/FITC-GIV peptide fluorescence polarization, 90 min; hits give low values; scaled: aluminum fluoride 0%, vehicle 100%. percent of control (FP), % (concentration not given with the values). actives 0.42% (n = 210,000). AID 1224905;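 active = replicate mean at 85% of control or lower, very high polarization wells dropped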;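 also: wells of about 15 µL received 100 nL stock; the first replicate is given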
HCMV NEC inh: inhibitors of HCMV UL50-UL53 interaction, biochemical, HTRF; inhibition, % (test concentration not listed); normalized percent inhibition; actives 0.15% (n = 190,000); HCMV UL50-UL53 nuclear egress complex (human cytomegalovirus); in the data active means inhibition above about 27%, passing the limit was not always enough
* = called active by the depositor; . = no result given.

1) O=C(Nc1ccc(N2C(=O)C3C4C=CC(C4)C3C2=O)cc1)Nc1ccccc1O (stereo not given)
2) COc1cccc(/C=N/NC(=O)c2oc3nc(-c4ccccc4)cc(-c4ccco4)c3c2N)c1
3) NNC(=O)c1oc2nc(-c3ccccc3)cc(-c3ccccc3)c2c1N
4) CCCCCCC[C@H](O)/C=C/[C@@H]1[C@@H](C/C=C\CCCC(=O)O)[C@@H](O)C[C@H]1O
5) CC(=O)Nc1ccc(S(=O)(=O)Nc2ccc3c(c2)CCCN3C(=O)c2ccccc2)cc1
6) O=c1cc(CN2CCCc3ccccc32)nc2sccn12

compound no. | 1 | 2 | 3 | 4 | 5 | 6
GIV Gai3 FP | 103 | -54* | 105 | . | 97 | -43*
HCMV NEC inh | -24 | -32 | -68 | -13 | 20 | -55

Three compounds already listed, ordered by the number in GIV Gai3 FP, high to low.
cpd	structure	GIV Gai3 FP
3	NNC(=O)c1oc2nc(-c3ccccc3)cc(-c3ccccc3)c2c1N	105
1	O=C(Nc1ccc(N2C(=O)C3C4C=CC(C4)C3C2=O)cc1)Nc1ccccc1O (stereo not given)	103
6	O=c1cc(CN2CCCc3ccccc32)nc2sccn12	-43*

2 records picked at random from those above:
5) CC(=O)Nc1ccc(S(=O)(=O)Nc2ccc3c(c2)CCCN3C(=O)c2ccccc2)cc1
6) O=c1cc(CN2CCCc3ccccc32)nc2sccn12

compound no. | 5 | 6
GIV Gai3 FP | 97 | -43*
HCMV NEC inh | 20 | -55

Continued.
7) CCCc1nn2c(=O)cc(CN3CCCc4ccccc43)nc2s1
8) O=C(NCCCN1CCC(N2CCCCC2)CC1)C1CCN(c2ccc3nncn3n2)CC1
9) O=S(=O)(c1cccc2cccnc12)N1CCc2nc(-c3ccccc3)ncc2C1
10) O=C(O)c1ccc2c(c1)NC(=O)C1CCCN21 (stereo not given)
11) COC(=O)c1ccc2c(c1)NC(=O)C1CCCN21 (stereo not given)
12) CCOc1c(Br)cc(C2C(C(=O)N3CCOCC3)=C(C)NC3=C2C(=O)CCC3)cc1OC (stereo not given)

compound no. | 7 | 8 | 9 | 10 | 11 | 12
GIV Gai3 FP | 159 | 96 | 104 | . | . | 103
HCMV NEC inh | . | -10 | . | 79* | -5 | .

13) O=C1/C(=C\c2ccc(Br)o2)CC/C1=C/c1ccc(Br)o1
14) O=C1/C(=C/c2cc3ccccc3o2)CC/C1=C\c1cc2ccccc2o1
15) CCc1ccc(NC(=O)CSC2=C(C#N)C(c3ccccc3Cl)C(C(=O)OC)C(=O)N2)cc1 (stereo not given)
16) CN(C)c1ccc(/C=C2\Cc3ccccc3C2=O)cc1
17) O=C1NC(=O)C(=Cc2ccc(N3CCCC3)cc2)C(=O)N1
18) CCn1c2ccccc2c2cc(/C=C3\CCC(C4CCCC4)C3=O)ccc21 (stereo not given)

compound no. | 13 | 14 | 15 | 16 | 17 | 18
GIV Gai3 FP | 281 | -5.9* | 107 | -75* | 99 | 106
HCMV NEC inh | . | . | . | . | -4 | .

19) O=C1/C(=C/c2ccc(N3CCOCC3)cc2)CC/C1=C\c1ccc(N2CCOCC2)cc1
20) CN(C)c1ccc(/C=C2\CCC/C(=C\c3ccccc3)C2=O)cc1
21) O=C1C(=Cc2ccc(N3CCCC3)cc2)C(=O)c2ccccc21
22) CCn1c2ccccc2c2cc(/C=C3\Cc4ccccc4C3=O)ccc21
23) O=C1/C(=C/c2ccc(N3CCOCC3)cc2)Cc2ccccc21
24) CC1(C)C(OC2OC(C(=O)O)C(O)C(O)C2OC2OC(C(=O)O)C(O)C(O)C2O)CC[C@@]2(C)[C@H]1CC[C@]1(C)[C@H]2C(=O)C=C2[C@H]3C[C@@](C)(C(=O)O)CC[C@]3(C)CC[C@]21C (stereo not given in full)

compound no. | 19 | 20 | 21 | 22 | 23 | 24
GIV Gai3 FP | 133 | 155 | -61* | -74* | -75* | .
HCMV NEC inh | . | . | -4 | . | . | 28

25) CC(C)n1cnc(S(=O)(=O)N2CCCC(C(=O)N3CCc4ccccc43)C2)c1 (stereo not given)
26) CC1CCCCN1S(=O)(=O)c1ccc(F)c(C(=O)Nc2c(F)cc(F)cc2Br)c1 (stereo not given)
27) O=C(Cn1ccc2ccc(N3CCOCC3)nc21)N1CCC2(CC1)OCCO2
28) CCc1nc2ccc(C(=O)NCCN3CCCCC3C)cc2nc1CC (stereo not given)
29) CCN(CC)CCCNC(=O)C1=C(C)C(=O)OC12CCN(C(C)=O)CC2
30) N#Cc1ccc(NC(=O)c2ccc(Br)cc2)cc1

compound no. | 25 | 26 | 27 | 28 | 29 | 30
GIV Gai3 FP | 109 | 106 | 99 | 105 | 105 | .
HCMV NEC inh | -5 | . | . | -44 | -19 | -30

31) CCOC(=O)c1ccc(NC(=O)c2cc3cc4c5c(c3oc2=N)CCCN5CCC4)cc1
32) N=c1oc2c3c4c(cc2cc1C(=O)Nc1ccccc1)CCCN4CCC3
33) Cc1ccc(NC(=O)c2cc3ccccc3oc2=N)cc1
34) CCOC(=O)c1ccc(NC(=O)c2cc3cc(Cl)ccc3oc2=N)cc1
35) N#Cc1ccc(NC(=O)c2cc3cc4c5c(c3oc2=N)CCCN5CCC4)cc1
36) CCC(C)NC(=O)C1CCN(c2cc(C)c3cc(NC(C)=O)ccc3n2)CC1 (stereo not given)

compound no. | 31 | 32 | 33 | 34 | 35 | 36
GIV Gai3 FP | -14* | -62* | 104 | 100 | -14* | 100
HCMV NEC inh | -9 | -4 | . | -16 | . | .

37) O=C(Cn1cnc2sc3c(c2c1=O)CCCC3)Nc1ccccc1
38) Cc1ccc(C)c(OCCCC(=O)Nc2ccc(N3CCOCC3)cc2)c1
39) Cc1ccc(NC(=O)CS(=O)CC(=O)Nc2ccc(N3CCOCC3)cc2)cc1Cl (stereo not given)
40) CC1(C)CC(=O)C(C(C2=C(O)CC(C)(C)CC2=O)c2ccc(Br)cc2)C(=O)C1 (stereo not given)
41) COc1ccc(OC)c(S(=O)(=O)Nc2cnc(N3CCCC3)c(C(=O)O)c2)c1
42) Cc1cc(C)c(S(=O)(=O)Nc2cnc(N3CCCC3)c(C(=O)O)c2)cc1C

compound no. | 37 | 38 | 39 | 40 | 41 | 42
GIV Gai3 FP | 108 | 101 | 99 | 103 | 94 | 72*
HCMV NEC inh | . | 92* | -7 | . | -27 | -21

43) CCN(CC)c1ncc(C(=O)O)cc1NS(=O)(=O)c1ccc(Br)cc1
44) CCCCN(CC)c1ncc(C(=O)O)cc1NS(=O)(=O)c1ccc(Br)cc1
45) CCCCOC(=O)c1ccc(NC(=O)c2cc(=O)c3ccccc3o2)cc1
46) CCCCOC(=O)c1cccc(NC(=O)c2cc3ccccc3o2)c1
47) Cc1[nH]n(-c2ccc(Br)cc2)c(=O)c1C1=c2ccccc2=NC1=O
48) CN1C(=O)C(=Cc2cc(Br)ccc2OCc2ccccc2)C(=O)N(C)C1=O

compound no. | 43 | 44 | 45 | 46 | 47 | 48
GIV Gai3 FP | 85* | 108 | 101 | 100 | 107 | 105
HCMV NEC inh | -4 | -2 | -23 | 138* | -14 | -3

49) O=C1NC(=O)C(=Cc2cc(Br)ccc2OCc2ccccc2)C(=O)N1
50) Cc1ccc(OCCOc2ccc(Br)cc2C=C2C(=O)NC(=S)NC2=O)cc1
51) O=C1NC(=S)NC(=O)C1=Cc1ccc(OCc2ccccc2)c(Br)c1
52) CCOc1cc(C=C2C(=O)NC(=S)NC2=O)ccc1OCc1ccccc1Cl
53) CCOC(=O)COc1ccc(Br)cc1C=C1C(=O)NC(=O)NC1=O
54) O=S(=O)(Cc1ccccc1)N(Cc1ccco1)CC1CCCO1 (stereo not given)

compound no. | 49 | 50 | 51 | 52 | 53 | 54
GIV Gai3 FP | 106 | 95 | 99 | 105 | 97 | 101
HCMV NEC inh | 89* | -25 | 66* | -11 | 57* | .

55) CN(C)c1c(/C=C(/C#N)S(C)(=O)=O)cc(/C=C(/C#N)S(C)(=O)=O)c(N(C)C)c1C#N
56) CCOC(=O)C1C(=O)NC(SCC(=O)Nc2c(C)cccc2C)=C(C#N)C1c1ccccc1OCC (stereo not given)
57) Fc1ccccc1-c1ccc(SCc2nc(-c3ccccc3Br)no2)nn1
58) CCCn1c(C)ccc(-c2noc(CCCC(=O)NC(C)c3ccccc3)n2)c1=O (stereo not given)
59) CCOc1cc(/C=C2/SC(=Nc3ccccc3)NC2=O)cc(Br)c1O
60) CCOc1cc(/C=C2/SC(=S)N(C)C2=O)cc(Br)c1O

compound no. | 55 | 56 | 57 | 58 | 59 | 60
GIV Gai3 FP | 196 | 107 | 103 | 103 | 276 | -47*
HCMV NEC inh | -91 | . | -23 | -41 | -53 | -1

61) CCC(=O)N1c2ccccc2NC2=C(C(=O)CC(C)(C)C2)C1c1ccccn1 (stereo not given)
62) CCCn1cnc2sc(C(=O)N3CCN(CC)CC3)c(C)c2c1=O
63) CN1CCc2c(sc3c2C(=O)NC(c2ccc(OC(=O)c4ccccc4)cc2)N3)C1 (stereo not given)
64) CN1CCc2c(sc3c2C(=O)NC(c2ccc(OC(=O)c4ccc(Cl)cc4)cc2)N3)C1 (stereo not given)
65) CN(C)c1ccc(C=NCCCN2CCOCC2)cc1

compound no. | 61 | 62 | 63 | 64 | 65
GIV Gai3 FP | 100 | 112 | 23* | 221 | 121
HCMV NEC inh | 1 | . | -123 | -93 | -8
